Values of other authors in patent US7914763B1, “Process and apparatus for preparing manganese thiosulfate (MnTS) solution” (Tessenderlo Kerley, Inc., priority 2010, dated 2011).

Conditions: pH of the compound as Mn plant nutrient source in water; cited from earlier work

## manganese chloride [MnCl2]
  respective pH: 6.9
